The results in this text go back to patent US6951654B2, “Intravaginal drug delivery devices for the administration of an antimicrobial agent” (Galen (Chemicals) Limited, priority 2001, dated 2005).

A short description of this data set: Solubility in water. The following applies: at 37° C.

Substance oestradiol-3-acetate came in with an aqueous solubility of 190 μg per 100 ml.
